# Only a part is listed here, and it is no random draw. Inconclusive results are not listed. The source made the active and inactive calls. Calls come from the whole dose curve; as a rule, active = well fitted cell-killing curve with a large enough effect; inconclusive = small, poorly fitted or top-dose-only effect, or effect the other way; inactive = flat fitted curve, though single readings scatter.
# Assay: qHTS assay for MDR1-selective chemotherapeutics: Primary screen using the drug-selected MDR subline cells KB-V1; note: nearly all actives have a fitted effect of over 60% in size
# Settings: KB-V1 MDR cells viability, CellTiter-Glo, 72 h; at 46.1 µM (top of the series)
# Text: A prime difficulty in effectively treating cancer is the development of cellular resistance to multiple structurally unrelated anticancer drugs, a phenomenon known as multidrug resistance (MDR). […] Numerous strategies to overcome P-gp-mediated MDR have been explored, including the design of drugs that evade recognition and efflux, and development of inhibitors to block efflux and restore drug accumulation. […] An alternative approach is to exploit resistance by identifying drugs that target MDR cells over the non-resistant parental cells from which they were selected. […] The development of MDR1-selective agents represents a new strategy for resolving multidrug resistance, as it remains a long-standing clinical challenge for cancer chemotherapy.
# Our goal is to identify compounds that selectively kill P-gp-expressing MDR cells. We will identify MDR1-selective compounds by comparing toxicity of compounds in the screening library against parental, drug-naive (KB-3-1) adenocarcinoma cells as well as their drug-selected MDR sub-line (KB-V1). The differential toxicity of compounds against these two cell lines will be used to identify MDR1-selective compounds, whose cytotoxicity is potentiated, rather than diminished, by P-gp expression. This assay will be utilized to conduct a quantitative high-throughput screen (qHTS) in collaboration with the NIH Chemical Genomics Center to identify selective agents, and probe hits arising from the screen will be validated using secondary assays and characterized through a well-established follow-up research program. This screen was run against the entire NCGC library collection of about 400,000 compounds.
# NIH Molecular Libraries Probe Production Network [MLPCN]
# NIH Chemical Genomics Center [NCGC]
# PI: Michael Gottesman, National Cancer Institute, NIH
# Briefly, 5 microL of media containing either KB-V1 cells (columns 1-2, 4-48) are dispensed into Greiner white, treated solid-bottom 1536-well assay plates (media-only control is added to column 3). Compounds are then transferred via Kalypsys pin tool equipped with 1536-pin array (10 nL slotted pins, V&P Scientific, San Diego, CA). Following addition of compound, the plates are incubated at 37 degrees C for 72 hours. CellTiter-Glo (2.5 µL/well) is then added, and the plates are read in a ViewLux reader (Perkin-Elmer, clear luminescence filter, 1 second exposure, 1x binning) following a 10 minute incubation. All cells are dispensed in DMEM phenol-red free media containing 10% FBS.
# Library plates were screened starting from the lowest and proceeding to the highest concentration. Vehicle-only plates, with DMSO being pin-transferred to columns 5-48, will be inserted uniformly at the beginning and the end of each library in order to monitor and record any shifts in the background, which can be affected by reagent dispensers or loss in enzyme activity over time. Screening data will be corrected, normalized, and concentration-effect relationships will be derived by using publicly-available NCGC, NCATS curve fitting algorithms (http://ncgc.nih.gov/pub/openhts).
# % is set by controls: 0 for no effect and ±100 for the full control effect.
row,SMILES,"activity change, negative = cytotoxicity"
1,COc1ccccc1OP(C)(=O)Nc1c(C)n(C)n(-c2ccccc2)c1=O (configuration not stated),inactive: 12.3%
2,O=C(OCCCN1CCCC1)C(O)(c1ccccc1)C1CCCCC1 (configuration not stated),inactive: 0.252%
3,CP(=O)(Oc1ccccc1)N1CCOC1=O (configuration not stated),inactive: 3.6%
4,CCc1ccc(OP(C)(=O)Nc2cccnc2)cc1 (configuration not stated),inactive: 0.0545%
5,CCN(CC)CC(O)COC(=O)C(O)(c1ccccc1)C1CCCCC1 (configuration not stated),inactive: -12.5%
6,COc1ccc(OP(C)(=O)Nc2ccc(Br)cc2)cc1 (configuration not stated),inactive: -28.1%
7,COc1ccccc1OP(C)(=O)Nc1ccccc1Br (configuration not stated),inactive: -19.2%
8,CC(C)(C)c1ccc(OP(C)(=O)O)cc1,inactive: 10.4%
9,CP(=O)(Nc1ccc(Cl)cc1)Oc1ccc(F)cc1 (configuration not stated),inactive: -20.4%
10,CP(=O)(OC12CC3CC(CC(C3)C1)C2)OC12CC3CC(CC(C3)C1)C2,inactive: 1.1%
11,Nc1ccc2c(ccc3cccnc32)n1.O=[N+]([O-])c1cc([N+](=O)[O-])c(O)c([N+](=O)[O-])c1,inactive: 3.12%
12,COc1ccccc1OP(C)(=O)Nc1ccc(C)c(C)c1 (configuration not stated),inactive: 3.03%
13,COc1ccc(OP(C)(=O)Nc2ccccc2Br)cc1 (configuration not stated),inactive: -6.51%
14,CCCCCCCCCCCCCCCC1C[N+](C)(C)CCOP(C)(=O)O1 (configuration not stated),inactive: -23.2%
15,CP(=O)(Nc1ccc(Cl)cc1Cl)Oc1ccccc1 (configuration not stated),inactive: 14.5%
16,CP(=O)(OCCOc1ccccc1)OCCOc1ccccc1,inactive: -4.78%
17,COc1ccc(OP(C)(=O)Nc2ccccn2)cc1 (configuration not stated),inactive: -0.133%
18,CN(C)CCOC(=O)C(O)(c1ccccc1)C1CCCC1 (configuration not stated),inactive: 9.78%
19,COc1ccccc1OP(C)(=O)Nc1ccc(Br)cc1 (configuration not stated),inactive: -10.8%
20,CP(=O)(Nc1ccccn1)Oc1ccccc1 (configuration not stated),inactive: -4.15%
21,COc1ccccc1OP(C)(=O)Nc1ccc(C)cc1C (configuration not stated),inactive: -12.9%
22,CCc1ccc(OP(C)(=O)O)cc1,inactive: 23.7%
23,Cc1c(NP(C)(=O)Oc2ccc(C(C)C)cc2)c(=O)n(-c2ccccc2)n1C (configuration not stated),inactive: 15.6%
24,CP(=O)(Nc1ccccc1F)Oc1ccccc1 (configuration not stated),inactive: -1.85%

row,SMILES,"activity change, negative = cytotoxicity"
1,CP(=O)(Nc1ccccc1)Oc1ccc(F)cc1 (configuration not stated),inactive: -1.21%
2,CCCCCOc1ccc(NP(C)(=O)Oc2ccc(Cl)cc2Cl)cc1 (configuration not stated),inactive: 0%
3,Cc1c([N+](=O)[O-])cc([N+](=O)[O-])c(Br)c1[N+](=O)[O-],inactive: 3.25%
4,CCN(CC)CCCOC(=O)C(O)(c1ccccc1)C1CCCCC1 (configuration not stated),inactive: -2.53%
5,CN(C)CCOC(=O)C(O)(c1ccccc1)C1CCCCC1 (configuration not stated),inactive: 9.72%
6,COc1ccc(NP(C)(=O)Oc2ccccc2OC)cc1 (configuration not stated),inactive: 9.51%
7,COc1ccc(OP(C)(=O)Nc2cccc(Br)c2)cc1 (configuration not stated),inactive: -11.2%
8,Cc1c(C(c2ccc3c(c2)OCO3)c2c(C)n(C)n(-c3ccccc3)c2=O)c(=O)n(-c2ccccc2)n1C.O=[N+]([O-])c1cc([N+](=O)[O-])c(O)c([N+](=O)[O-])c1,inactive: -0.987%
9,O=[N+]([O-])c1ccc(OP2(=O)COCCO2)cc1 (configuration not stated),inactive: -10.6%
10,CCOP(C)(=S)SCC(=O)NC(C)(CC)C(=O)O (configuration not stated),inactive: 4.26%
11,CP(=O)(Nc1ccc(SC(F)(F)F)cc1)Oc1ccc(F)cc1 (configuration not stated),inactive: -2.87%
12,Cc1ccccc1NP(C)(=O)Nc1ccccc1C,inactive: -4.36%
13,O=[N+]([O-])c1cc([N+](=O)[O-])c(C(F)(F)F)c([N+](=O)[O-])c1O,inactive: -14%
14,CP(=O)(Nc1ccc2c(c1)OCCO2)Oc1ccccc1 (configuration not stated),inactive: -1.51%
15,CN(Cc1cccnc1)C(=O)COc1ccc(Cl)c(Cl)c1.O=[N+]([O-])c1cc([N+](=O)[O-])c(O)c([N+](=O)[O-])c1,inactive: 2.33%
16,O=[N+]([O-])c1cc([N+](=O)[O-])c(-n2nnc3ccccc32)c([N+](=O)[O-])c1,inactive: -4.13%
17,Cc1nc2ccc3ccccc3c2s1.O=[N+]([O-])c1cc([N+](=O)[O-])c(O)c([N+](=O)[O-])c1,inactive: 6.15%
18,CC1=C2N=C(C=C3N=C(C(C)=C4[N-][C@@](C)([C@@H]5N=C1[C@](C)(CCC(=O)NC[C@@H](C)OP(=O)([O-])O[C@H]1[C@@H](O)[C@@H](n6cnc7cc(C)c(C)cc76)O[C@@H]1CO)[C@H]5CC(N)=O)[C@@](C)(CC(N)=O)[C@@H]4CCC(N)=O)[C@@](C)(CC(N)=O)[C@@H]3CCC(N)=O)C(C)(C)[C@@H]2CCC(N)=O.[C-]#N.[Co+3],inactive: 12.4%
19,O=[N+]([O-])c1cc([N+](=O)[O-])c(Nc2nnnn2CCO)c([N+](=O)[O-])c1,inactive: -16.4%
20,COc1ccc(-c2ccccn2)cc1.O=[N+]([O-])c1cc([N+](=O)[O-])c(O)c([N+](=O)[O-])c1,inactive: -3.66%
21,CCCOc1ccc(NP(C)(=O)Oc2ccc(Cl)cc2)cc1 (configuration not stated),inactive: 9.4%
22,CP(=O)(Nc1ccc(SC(F)(F)F)cc1)Oc1ccccc1 (configuration not stated),inactive: -10.2%
23,CN1CCCCC1COC(=O)C1(O)c2ccccc2CCc2ccccc21 (configuration not stated),inactive: 0%
24,COc1ccccc1OP(C)(=O)Nc1c(C)cccc1C (configuration not stated),inactive: -1.33%

row,SMILES,"activity change, negative = cytotoxicity"
1,CC1=NCCc2c1[nH]c1ccccc21.O=[N+]([O-])c1cc([N+](=O)[O-])c(O)c([N+](=O)[O-])c1,inactive: -24.8%
2,Cc1cc(C)cc(OP(C)(=O)Nc2ccc(C)cc2C)c1 (configuration not stated),inactive: -2.56%
3,Cc1ccc(C)c(NP(C)(=O)Oc2ccccc2)c1 (configuration not stated),inactive: 5.81%
4,Cc1cc(C)cc(OP(C)(=O)Nc2ccccn2)c1 (configuration not stated),inactive: 6.83%
5,CP(=O)(Nc1cccc(Br)c1)Oc1ccccc1 (configuration not stated),inactive: 0%
6,CCN(CC)CCCOC(=O)C(O)(c1ccccc1)c1ccccc1,inactive: -2.21%
7,COc1ccccc1-c1ccccn1.O=[N+]([O-])c1cc([N+](=O)[O-])c(O)c([N+](=O)[O-])c1,inactive: -3.59%
8,O=[N+]([O-])c1ccc2c(c1)C=Nc1ccccc1O2,inactive: -17.8%
9,Cc1cccc(C)c1OP(C)(N)=O (configuration not stated),inactive: -4.17%
10,O=[N+]([O-])c1cc([N+](=O)[O-])c(Nc2cccnc2)c([N+](=O)[O-])c1,inactive: -23.5%
11,COc1ccccc1OP(C)(=O)Nc1cc(Cl)ccc1C (configuration not stated),inactive: 0%
12,COc1ccc(OP(C)(=O)Nc2cccc(F)c2)cc1 (configuration not stated),inactive: 3.18%
13,Cc1ccc(NP(C)(=O)Oc2ccccc2)c(C)c1 (configuration not stated),inactive: 5.28%
14,CCOC(=O)c1ccc(NP(C)(=O)Oc2ccccc2)cc1 (configuration not stated),inactive: -29.5%
15,COc1ccccc1OP(C)(=O)Nc1ccccc1 (configuration not stated),inactive: -2.81%
16,CP(=S)(Nn1cnnc1)Oc1ccccc1 (configuration not stated),inactive: -12.6%
17,CP(=O)(NC(=O)Nc1ccccc1)Oc1ccccc1 (configuration not stated),inactive: 12.4%
18,Cc1cc(C)cc(OP(C)(=O)Nc2ccc(SC(F)(F)F)cc2)c1 (configuration not stated),inactive: 4.52%
19,CP(=O)(Nc1ccc(SC(F)(F)F)cc1)Oc1ccc(Cl)cc1 (configuration not stated),inactive: -0.347%
20,Cc1cccc(C)c1OP(C)(=O)Nc1ccc(SC(F)(F)F)cc1 (configuration not stated),inactive: -10.5%
21,CP(=O)(Oc1ccccc1)OC(c1ccccc1)C(F)(F)F (configuration not stated),inactive: -1.94%
22,CP(=O)(Nc1ccccn1)Oc1ccc(Cl)cc1 (configuration not stated),inactive: 7.78%
23,O=[N+]([O-])c1cc([N+](=O)[O-])c(O)c([N+](=O)[O-])c1.c1ccc(Oc2ccncc2)cc1,inactive: 22.3%
24,CCOP(C)(=S)SCC(=O)NC(C)C(=O)O (configuration not stated),inactive: 8.52%

# — PubChem BioAssay AID1347076 (National Center for Advancing Translational Sciences (NCATS), 2019)
